Results published in article PMC11384906, “PAR1-mediated Non-periodical Synchronized Calcium Oscillations in Human Mesangial Cells” (Function, 2024).

The chains behind the UniProt entries cited, without tags or fusion partners. Residues count along the entry.
UniProt P25116, 22-425: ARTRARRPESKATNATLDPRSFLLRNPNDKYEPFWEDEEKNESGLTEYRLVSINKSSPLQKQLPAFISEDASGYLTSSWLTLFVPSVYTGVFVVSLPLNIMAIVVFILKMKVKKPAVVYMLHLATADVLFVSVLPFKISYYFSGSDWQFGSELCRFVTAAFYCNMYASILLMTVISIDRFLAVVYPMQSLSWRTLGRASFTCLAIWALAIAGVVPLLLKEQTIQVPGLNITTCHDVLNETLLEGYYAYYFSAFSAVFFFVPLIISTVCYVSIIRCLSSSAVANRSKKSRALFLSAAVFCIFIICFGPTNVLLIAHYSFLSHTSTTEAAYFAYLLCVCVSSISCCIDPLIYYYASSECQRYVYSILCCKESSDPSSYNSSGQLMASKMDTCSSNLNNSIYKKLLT

Biological target: PAR1 (Homo sapiens, UniProt P25116)
Experiment: cell-based

CC(C)C[C@H](NC(=O)[C@H](CC(C)C)NC(=O)[C@H](Cc1ccccc1)NC(=O)[C@@H](N)[C@@H](C)O)C(=O)N[C@@H](CCCNC(=N)N)C(N)=O [TFLLR-NH2]
EC50: 3 ± 0.8 nM | EC50 (EC50, Ca2+ response to PAR1 agonist, female-derived HRMCs, Fluo-8H, AM, room temperature): 6.3 ± 0.2 nM

Like-named read-outs stand apart in the source and are kept apart here.
